Measured values as given in US20220332817A1 (Bristol-Myers Squibb, published 2022).

Chains of the proteins cited; added tags and fusions are not shown. Residues count along the entry.
UniProt Q9NP99, 21-234 limits assumed: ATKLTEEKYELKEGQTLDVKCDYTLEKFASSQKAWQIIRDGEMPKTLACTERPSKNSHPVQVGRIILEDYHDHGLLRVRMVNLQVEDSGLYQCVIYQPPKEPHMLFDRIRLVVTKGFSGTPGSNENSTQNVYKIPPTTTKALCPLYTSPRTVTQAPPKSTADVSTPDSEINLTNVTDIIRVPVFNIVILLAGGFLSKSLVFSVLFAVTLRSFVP

Molecular target: T1, human TREM-1 (triggering receptor expressed on myeloid cells 1), isoform 1 (human, UniProt Q9NP99 21-234)
T1 construct: also called huTREM1; CD354
Assay: FACS competition with labelled mAb 170 on Jurkat cells expressing huTREM1

- binding result: binds
B1: P1-047239 (antibody, V domains shown)
VH: QVQLVESGGGVVQPGRSLRLSCAATEFTFSNYGMHWVRQAPGKGLEWVAVIWYDGSNKYYADSVKGRFTISRDNSKNTLYLQLNSLSAEDSAVYYCARDGRHYYGSTSYFGMDVWGQGTTVTVSS
VL: AIQLTQSPSSLSASVGDRVTITCRASQGISSALAWYQQKPGKAPKLLIYDASSLESGVPSRFSGSGSGTDFTLTISSLQPEDFATYYCQQFNSYPYTFGQGTKLEIK
